Assay results as given in US10287267B2, “Isoquinolin-3-yl carboxamides and preparation and use thereof” (Samumed, LLC, priority 2016, dated 2019).

What was measured:
Type in all cases: cell-based
[1] = system: Tau phosphorylation at Ser396 (pSer396); experiment: Tau phosphorylation assay (pSer396 ELISA / western blot) in SH-SY5Y cells; settings: Homo sapiens, read-out: pSer396 Tau EC50;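 also: EC50 for reduction of Tau pSer396 in lysed cells, measured by colorimetric ELISA or chemiluminescent western blot, both using the same pSer396 antibody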
[2] = system: α-smooth muscle actin (αSMA) positive LL29 cells; experiment: Inhibition of fibrotic process: αSMA in TGF-β1 treated primary human fibroblasts from IPF patients; settings: Fibroblast, 96 h, Table 8, TGF-β1 20 ng/mL, 4 days, dose-response 10 μM to 0.94 nM;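 also: controls were TGF-β1 stimulated wells with DMSO vehicle (positive) and cells given DMSO alone (negative), cultured in F12 medium with 1% fetal bovine serum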
[3] = system: secreted β-amyloid 40 (Aβ40) peptide; experiment: Secreted β-amyloid 40 (Aβ40) peptide in APP overexpressing SH-SY5Y-APP cells; settings: Homo sapiens, overnight (16-18 hours)

| Compound | EC50 [1] | EC50 [2] | IC50 [3] |
| --- | --- | --- | --- |
| CC(C)CN1CCC(C(=O)Nc2cc3cc(-c4cnn(C)c4)ccc3cn2)CC1 [Compound 77, 1-Isobutyl-N-(6-(1-methyl-1H-pyrazol-4-yl)isoquinolin-3-yl)piperidine-4-carboxamide] | 184 nM | 146 nM | 1100 nM |
| [2H]C([2H])([2H])C([2H])(C([2H])([2H])[2H])C([2H])([2H])N1CCC(C(=O)Nc2cc3cc(-c4cnn(C)c4)ccc3cn2)CC1 [Compound 1086, N-(6-(1-Methyl-1H-pyrazol-4-yl)isoquinolin-3-yl)-1-(2-(methyl-d3)propyl-1,1,2,3,3,3-d6)piperidine-4-carboxamide] | 168 nM |  |  |
| [2H]C([2H])([2H])n1cc(-c2ccc3cnc(NC(=O)C4CCN(CC(C)C)CC4)cc3c2)cn1 [Compound 972, 1-Isobutyl-N-(6-(1-(methyl-d3)-1H-pyrazol-4-yl)isoquinolin-3-yl)piperidine-4-carboxamide] | 355 nM | 754 nM |  |
| [2H]c1nc(NC(=O)C2CCN(CC(C)C)CC2)cc2cc(-c3cnn(C)c3)ccc12 [Compound 1087, 1-Isobutyl-N-(6-(1-methyl-1H-pyrazol-4-yl)isoquinolin-3-yl-1-d)piperidine-4-carboxamide] | 160 nM |  |  |
